Test results: patent publication US5032577A, “Peptidylaminodiols” (Abbott Laboratories, priority 1987, dated 1991)

The chains behind the UniProt entries cited, without tags or fusion partners. Residues count along the entry.
UniProt P00797, 67-406: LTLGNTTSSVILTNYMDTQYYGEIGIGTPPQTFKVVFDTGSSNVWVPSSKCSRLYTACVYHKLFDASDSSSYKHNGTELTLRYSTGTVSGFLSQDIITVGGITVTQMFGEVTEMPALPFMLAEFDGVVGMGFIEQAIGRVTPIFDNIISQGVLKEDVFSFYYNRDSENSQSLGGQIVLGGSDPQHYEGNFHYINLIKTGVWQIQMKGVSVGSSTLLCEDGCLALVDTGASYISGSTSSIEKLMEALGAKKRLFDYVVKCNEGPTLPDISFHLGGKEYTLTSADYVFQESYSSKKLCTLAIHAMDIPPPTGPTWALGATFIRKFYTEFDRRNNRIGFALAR

Each compound was assayed against T1, human renal renin (Homo sapiens, UniProt P00797) (assay: Inhibition of human renal renin in vitro; angiotensin I formed measured by radioimmunoassay). Conditions: not given.
T1 construct: human renal renin, free from acid proteolytic activity; from tissue
Assay type: biochemical
With `CCCCN[C@@H](Cc1ccc(OC)cc1)C(=O)N[C@@H](Cc1c[nH]cn1)C(=O)N[C@@H](CC1CCCCC1)[C@@H](O)[C@@H](O)CC(C)C` [Example 54, (N-Butyl, 4-OCH3)Phe-His Amide of 2(S)-Amino-1-cyclohexyl-3(R),4(S)-dihydroxy-6-methylheptane] the IC50 was 0.95 nM.
Compound `CC(C)C[C@H](NC(=O)[C@H](Cc1ccccc1)NC(=O)OCCCO)C(=O)N[C@@H](CC1CCCCC1)[C@@H](O)[C@@H](O)CC(C)C` [Example 91, 3-Hydroxypropyloxycarbonyl-Phe-Leu Amide of 2(S)-Amino-1-cyclohexyl-3(R),4(S)-dihydroxy-6-methylheptane] has an IC50 of 0.3 nM.
Work on `COc1ccc(C[C@H](NC(=O)N2CCOCC2)C(=O)N[C@@H](Cc2cnc[nH]2)C(=O)N[C@@H](CC2CCCCC2)[C@@H](O)[C@@H](O)CC(C)C)cc1` [Example 127, [(4-Morpholinyl)carbonyl]-(4-OCH3)Phe-His Amide of 2(S) -Amino-l-cyclohexyl-3(R),4(S)-dihydroxy-6-methylheptane] yielded an IC50 of 0.75 nM.
Compound `CC(C)C[C@H](O)[C@H](O)[C@H](CC1CCCCC1)NC(=O)[C@H](Cc1c[nH]cn1)NC(=O)[C@H](Cc1ccccc1)NC(=O)COCc1ccccc1` [Example 102, Benzyloxyacetyl-Phe-His Amide of 2(S)-Amino-l-cyclohexyl-3(R),4(S)-dihydroxy-6-methylheptane] has an IC50 of 0.6 nM.
`CC(C)C[C@H](O)[C@H](O)[C@H](CC1CCCCC1)NC(=O)[C@H](Cc1cc[nH]n1)NC(=O)[C@H](Cc1ccccc1)NC(=O)OC(C)(C)C` [Example 35, Boc-Phe-PAla Amide of 2(S)-Amino-1-cyclohexyl-3(R),4(S)-dihydroxy-6-methylheptane] gave an IC50 of 1 nM.
Work on `CC(C)C[C@H](O)[C@H](O)[C@H](CC1CCCCC1)NC(=O)[C@H](Cc1c[nH]cn1)NC(=O)[C@@H](O)Cc1ccccc1` [Example 25, Pl-His Amide of 2(S)-Amino-l-cyclohexyl-3(R),4(S)-dihydroxy-6-methylheptane] yielded an IC50 of 20 nM.

Same assay, conditions: human renal renin free from acid proteolytic activity, renin substrate human angiotensinogen, 37° C., pH 6.0
Work on `CC(C)C[C@H](O)[C@H](O)[C@H](CC1CCCCC1)NC(=O)[C@H](Cc1c[nH]cn1)NC(=O)[C@H](Cc1ccccc1)NC(=O)NC(C)(C)C` [Example 32, Tbac-Phe-His Amide of 2(S)-Amino-l-cyclohexyl-3(R),4(S)-dihydroxy-6-methylheptane] yielded an IC50 of 2 nM.
`CCOC(=O)N[C@@H](Cc1ccccc1)C(=O)N[C@@H](Cc1c[nH]cn1)C(=O)N[C@@H](CC1CCCCC1)[C@@H](O)[C@@H](O)CC(C)C` [Example 29, Ethoxycarbonyl-Phe-His Amide of 2(S)-Amino-1-cyclohexyl-3(R),4(S)-dihydroxy-6-ethylheptane] gave an IC50 of 0.6 nM.
